Source: publication PMC9939005 (Journal of medicinal chemistry, 2022)

Sequences of proteins named here, by UniProt entry; tags and fusion partners are left off. Residues count along the entry.
UniProt O60674, 536-812: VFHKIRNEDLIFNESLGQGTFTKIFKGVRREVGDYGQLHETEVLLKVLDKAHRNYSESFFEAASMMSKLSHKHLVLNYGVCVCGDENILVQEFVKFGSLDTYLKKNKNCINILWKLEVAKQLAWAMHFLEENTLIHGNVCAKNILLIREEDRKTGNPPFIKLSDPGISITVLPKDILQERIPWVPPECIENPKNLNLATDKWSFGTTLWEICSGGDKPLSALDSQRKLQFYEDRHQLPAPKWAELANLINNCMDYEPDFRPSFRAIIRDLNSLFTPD

Columns and labels:
JAK2 JH2 V617F = format: binding
JAK2 JH2 WT [1] = format: binding
STAT-5 phosphorylation = conditions: cited from earlier work
JAK2 JH2 WT [2] = target: JAK2 JH2 WT (Homo sapiens, UniProt O60674); format: binding; conditions: Kd with WT JAK2 JH2

## Nc1nc(Nc2ccc(S(N)(=O)=O)cc2)nn1C(=O)Nc1ccc(-c2ccnc(C(=O)O)c2)cc1 [Compound 6, 4-(4-(5-amino-3-((4-sulfamoylphenyl)amino)-1H-1,2,4-triazole-1-carboxamido)phenyl)picolinic acid]
JAK2 JH2 V617F
  selectivity toward the mutant (V617F) JH2 compared to WT JH2: 3 fold

## CNC(=O)c1ccc(Nc2nc(N)n(C(=O)Nc3ccc(-c4ccc(OCc5ccccc5)c(C(=O)O)c4)cc3)n2)cc1 [Compound 13, 4’-(5-amino-3-((4-(methylcarbamoyl)phenyl)amino)-1H-1,2,4-triazole-1-carboxamido)-4-(benzyloxy)-[1,1’-biphenyl]-3-carboxylic acid]
JAK2 JH2 WT [1]
  greater selectivity over JH1 binding than 2: 10 fold

## N#CC[C@H](C1CCCC1)n1cc(-c2ncnc3[nH]ccc23)cn1 [Ruxolitinib, ruxolitinib]
STAT-5 phosphorylation; literature report
  IC50: 274 nM
STAT-5 phosphorylation; literature reports
  IC50: 30 to 100 nM

## Nc1nc(Nc2ccc(S(N)(=O)=O)cc2)nn1C(=O)Nc1ccc(-c2ccc(OCc3ccccc3)c(C(=O)O)c2)cc1 [Compound 11, 4’-(5-amino-3-((4-sulfamoylphenyl)amino)-1H-1,2,4-triazole-1-carboxamido)-4-(benzyloxy)-[1,1’-biphenyl]-3-carboxylic acid]
JAK2 JH2 WT [2]
  more potent than 7: ~3.5 x

Where two headings read alike, the source gives them in different places.
